Results: PubChem BioAssay (NCATS)
This is a selection; strong and weak results do not stand in their true shares. Inconclusive results are not listed. Activity calls are given as the source filed them. The call rests on the fitted dose curve; in most records, active means well fitted curve in the direction sought with a large enough effect; inconclusive means small, poorly fitted or top-dose-only effect, or another doubt; inactive means no such curve, though single readings can be large; an effect the other way counts as inactive or inconclusive.

Assays:
[1] = Cell Viability - LYMP1-003 - Assay at 24 hr (AID 963); further: potency means the concentration at half of the fitted maximal effect;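 on viability change, negative = cytotoxic: plate controls were DMSO only for no effect and tetraoctylammonium bromide positive control for full effect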
Outline: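 Acute toxicity in LYMP1-003 lymphoblastoid cells: 24 hr compound treatment at 37 C, ATP measured with CellTiter-Glo after 30 min at room temperature. AC50 derived by fitting the Hill equation to qHTS titrations.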

[2] = Cell Viability - LYMP1-003 - Assay at 40 hr (AID 964); conditions: LYMP1-003 lymphoblastoid viability; at 92.2 µM (top of the series); further: on the % scale 0 is the no-effect control and ±100 the full control effect; nearly all actives have a fitted effect of over 60% in size
Outline: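 This qHTS cytotoxicity screen treats human lymphoblastoid cells (LYMP1-003) with compounds for 40 hr and quantifies cellular ATP via luciferase luminescence.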

[3] = Cell Viability - LYMP2-003 (AID 965); conditions: LYMP2-003 lymphoblastoid cell viability; at 92.2 µM (top of the series);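 further: cells exposed to compounds for 24 h before reading; 0% = DMSO only and full effect = 92 µM tetraoctylammonium bromide; nearly all actives have a fitted effect of over 50% in size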
Outline: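 Acute cytotoxicity is scored as a concentration-dependent drop in intracellular ATP, measured by luciferase luminescence in human lymphoblastoid cells treated for 24 hours at 37 C. AC50 values derive from Hill-equation modelling.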

[4] = Cell Viability - LYMP2-004 (AID 966); conditions: LYMP2-004 lymphoblastoid cell viability, qHTS; at 92.2 µM (top of the series);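 further: plate controls were DMSO only for no effect and tetraoctylammonium bromide control for full effect; nearly all actives have a fitted effect of over 65% in size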
Outline: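 Acute toxicity is scored as a concentration-dependent drop in intracellular ATP, quantified by luciferase luminescence, in human lymphoblastoid cells exposed to compound for 24 hr. AC50 derives from Hill-equation modelling.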

[5] = Cell Viability - LYMP2-005 (AID 967); conditions: LYMP2-005 lymphoblastoid cell viability; at 92.2 µM (top of the series);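 further: plate controls were DMSO only for no effect and 92 µM tetraoctylammonium bromide control for full effect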
Outline: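 qHTS viability screen in LYMP2-005 cells: 24 h at 37 C with compound, ATP luminescence via CellTiter-Glo, AC50 from Hill curves.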

[6] = Cell Viability - LYMP2-009 (AID 968); conditions: LYMP2-009 lymphoblastoid cell viability; at 92.2 µM (top of the series);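 further: 0% = DMSO alone and the full-kill end = tetraoctylammonium bromide at 92 µM; nearly all actives have a fitted effect of over 55% in size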
[7] = Cell Viability - LYMP2-011 (AID 969); conditions: LYMP2-011 lymphoblastoid cells viability; at 92.2 µM (top of the series);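 further: 0% = DMSO only and full inhibition = 92 µM tetraoctylammonium bromide; nearly all actives have a fitted effect of over 60% in size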
Outline: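 Acute toxicity is scored as a concentration-dependent drop in intracellular ATP of a human lymphoblastoid line after 24 hr treatment. Values are AC50s modeled with the Hill equation.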

[8] = Cell Viability - LYMP2-013 (AID 970); conditions: LYMP2-013 lymphoblastoid cells viability; at 92.2 µM (top of the series);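 further: 0% = DMSO only and full inhibition = tetraoctylammonium bromide control; nearly all actives have a fitted effect of over 55% in size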
Outline: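 Acute toxicity was measured in human lymphoblastoid cells (2500/well) exposed to compound titrations for 24 hr, with ATP luminescence (CellTiter-Glo) as read-out and AC50 fitted by Hill equation.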

[9] = Cell Viability - LYMP2-015 (AID 971); conditions: LYMP2-015 lymphoblastoid cell viability; at 92.2 µM (top of the series);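 further: 0% = DMSO only and full effect = 92 µM tetraoctylammonium bromide; nearly all actives have a fitted effect of over 55% in size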
Outline: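 Acute toxicity was scored as a concentration-dependent drop in intracellular ATP in lymphoblastoid cells after 24 hr compound exposure in complete medium. Detection used CellTiter-Glo luciferase luminescence.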

[10] = Cell Viability - LYMP2-017 (AID 972); conditions: LYMP2-017 lymphoblastoid cell viability; at 92.2 µM (top of the series);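 further: cells exposed to compound for 24 hours at 37 °C; on the % scale 0 is the no-effect control and ±100 the full control effect; nearly all actives have a fitted effect of over 55% in size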
Outline: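 Steps: plate 2500 lymphoblastoid cells per well; incubate 5 hr at 37 C; add compound across a concentration series and incubate 24 hr at 37 C; add CellTiter-Glo and read luminescence after 30 min at room temperature; fit Hill curves for AC50.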

[11] = Cell Viability - LYMP2-019 (AID 973); conditions: LYMP2-019 lymphoblastoid cell line viability; at 92.2 µM (top of the series)
Outline: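 Cells plated at 2500/well and allowed 5 hr at 37 C before compound addition. After 24 hr incubation, CellTiter-Glo reagent was added, plates sat 30 min at room temperature, and luminescence was recorded.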

[12] = Cell Viability - LYMP2-021 (AID 974); conditions: LYMP2-021 lymphoblastoid cells viability; at 92.2 µM (top of the series)
Outline: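 Concentration-response cytotoxicity in a human lymphoblastoid line: 24 hr treatment at 37 C in complete culture medium, tetraoctylammonium bromide as positive control, luminescent ATP quantitation as viability measure.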

[13] = Cell Viability - LYMP2-023 (AID 975); conditions: LYMP2-023 lymphoblastoid cell viability; at 92.2 µM (top of the series)
Outline: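 Concentration-dependent drop in intracellular ATP measures acute cytotoxicity in a human lymphoblastoid line treated for 24 hours in complete culture medium. AC50 values are taken from Hill-equation fits of qHTS data.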

[14] = Cell Viability - LYMP2-025 (AID 976); conditions: LYMP2-025 lymphoblastoid cell viability; at 92.2 µM (top of the series);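 further: plate controls were DMSO only for no effect and tetraoctylammonium bromide control for full effect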
Outline: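 In qHTS format, LYMP2-025 lymphoblastoid cells in complete culture medium received compound for 24 hr; ATP-based CellTiter-Glo signal gave viability, with AC50 derived by Hill equation.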

[15] = Cell Viability - LYMP2-002 (AID 977); conditions: LYMP2-002 lymphoblastoid cell viability, qHTS; at 92.2 µM (top of the series);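 further: compound exposure lasted 24 h at 37 °C; plate controls were DMSO only for no effect and 92 µM tetraoctylammonium bromide for full effect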
Outline: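 Cytotoxicity is scored as concentration-dependent loss of cellular ATP in a human lymphoblastoid line after 24 hr compound treatment at 37 C. AC50 is obtained by modelling concentration-response data with the Hill equation.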

[16] = Cell Viability - LYMP2-006 (AID 978); conditions: LYMP2-006 lymphoblastoid cell viability, qHTS; at 92.2 µM (top of the series); further: on the % scale 0 is the no-effect control and ±100 the full control effect; nearly all actives have a fitted effect of over 60% in size
Outline: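 Concentration-dependent loss of intracellular ATP in a human lymphoblastoid line after 24 hr treatment at 37 C was measured by CellTiter-Glo luminescence, with AC50 values obtained from standard Hill-equation modelling.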

[17] = Cell Viability - LYMP2-007 (AID 979); conditions: LYMP2-007 lymphoblastoid cell viability; at 92.2 µM (top of the series);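 further: cells exposed to compound for 24 h before reading; 0% = DMSO only and the negative end = 92 µM tetraoctylammonium bromide; nearly all actives have a fitted effect of over 60% in size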
Outline: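 Acute toxicity is scored as a concentration-dependent fall in intracellular ATP in human lymphoblastoid cells treated 24 hr at 37 C, measured by luciferase luminescence; Hill-equation modelling yields AC50.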

[18] = Cell Viability - LYMP2-008 (AID 980); conditions: LYMP2-008 lymphoblastoid cell viability, qHTS; at 92.2 µM (top of the series)
Outline: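 Acute cytotoxicity is scored as concentration-dependent loss of cellular ATP in a human lymphoblastoid line after 24 hr treatment at 37 C. ATP is quantified by luciferase luminescence.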

[19] = Cell Viability - LYMP2-010 (AID 981); conditions: LYMP2-010 lymphoblastoid cell viability, qHTS; at 92.2 µM (top of the series)
Outline: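 Acute toxicity is scored as a concentration-dependent loss of cellular ATP in human lymphoblastoid cells after 24 hr compound exposure in complete medium. Tetraoctylammonium bromide is the positive control.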

[20] = Cell Viability - LYMP2-012 (AID 982); conditions: LYMP2-012 lymphoblastoid cell viability qHTS; at 92.2 µM (top of the series)

SMILES	Potency [1]	activity change, negative = cytotoxic [2]	activity change, negative = cytotoxicity [3]	activity change, negative = cytotoxicity [4]	activity change, negative = viability loss [5]	activity change, negative = viability loss [6]	viability change, negative = cytotoxic [7]	activity change, negative = cytotoxic [8]	activity change, negative = lower viability [9]	activity change, negative = cytotoxicity [10]	activity change, negative = cytotoxicity [11]	activity change, negative = cytotoxicity [12]	activity change, negative = cytotoxicity [13]	activity change, negative = cytotoxicity [14]	activity change, negative = cytotoxic [15]	activity change, negative = cytotoxicity [16]	activity change, negative = cytotoxicity [17]	activity change, negative = cytotoxicity [18]	activity, negative = cytotoxicity [19]	activity change, negative = cytotoxicity [20]
CN(CCCl)CCCl	active: 39.8 µM																			
O=[N+]([O-])C(Cl)(Cl)Cl	inactive	inactive: -11.7%	inactive: 9.59%	inactive: 4.78%	inactive: -27.3%	inactive: -8.91%	inactive: -4.82%	inactive: -4.6%	inactive: 1.27%	inactive: -5.75%	inactive: 2.58%	inactive: -0.938%	inactive: -0.274%	inactive: -7.13%	inactive: -3.73%	inactive: -3.38%	inactive: 1.98%	inactive: 1.92%	inactive: -3.02%	inactive: -3.53%
